This passage reports IC50 and Kd results from patent US20070254831A1 (published 2007).

Protein sequences, listed by entry. Tags and fused reporters are not part of them. Residues count along the entry.
UniProt P55899, 24-297 limits assumed, chain 1 of 2: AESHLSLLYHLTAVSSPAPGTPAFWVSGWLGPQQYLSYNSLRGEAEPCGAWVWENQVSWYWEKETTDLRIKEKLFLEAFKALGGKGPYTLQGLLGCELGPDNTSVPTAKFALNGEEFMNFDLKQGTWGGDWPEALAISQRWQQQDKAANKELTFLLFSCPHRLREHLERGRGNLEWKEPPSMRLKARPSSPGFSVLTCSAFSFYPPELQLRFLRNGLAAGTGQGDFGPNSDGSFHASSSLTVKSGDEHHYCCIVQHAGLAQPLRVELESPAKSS

Experiment [1] deals with T1, soluble human FcRn (human, UniProt P55899 24-297; P61769 21-119, biotinylated (Sulfo-NHS-LC-Biotin) in the ELISA; amine-coupled to CM5 chip in SPR).
T1 construct: also called shFcRn; biotinylated shFcRn
Description: ELISA, competitor human IgG. As to the method:
To allow for mixing, the plate was rocked for 2 minutes, sealed and incubated at 37° C. for 2 hours. […] Once color developed, 100 μl/well of TMB stop solution (KPL, Gaithersburg, Md.) was added and the absorbance was measured at 450 nm.
(In an ELISA, binding on a coated surface is turned into a signal by an enzyme label.)

Experiment [2] has as its target T1, soluble human FcRn. Description: SPR, pH 6. As to the method: (§1) The following steps were performed to cross-link soluble human or cynomolgus FcRn to the dextran surface of a CM5 sensor chip (Biacore AB, Uppsala, Sweden) by an amine coupling reaction involving 1-ethyl-(3-dimethylaminopropyl)-carbodiimide hydrochloride (EDC) (Biacore AB, Uppsala, Sweden) and N-hydroxysuccinimide (NHS) (Biacore AB, Uppsala, Sweden) as recommended by Biacore (BIAapplications Handbook, version AB, section 4.2, Biacore AB, Uppsala, Sweden). […] Residual sites on the FcRn flow cell were blocked with 1 M ethanolamine hydrochloride pH 8.5 (Biacore AB, Uppsala, Sweden). A control flow cell was blocked with ethanolamine for reference subtraction. For analysis of the monomeric peptides, FcRn was coated to a final density of 4000-5000 response units (RU). For analysis of the peptide dimers, FcRn was coated to a density of 2000-2500 RU. All SPR measurements were performed using a BIACORE 3000 Instrument (Biacore AB Uppsala, Sweden). For measurements done at either pH 6 or pH 7.4, experiments were performed in 50 mM phosphate, 100 mM sodium chloride, 0.01% surfactant P20 (Biacore AB, Uppsala, Sweden).
(§2) The peptide was dissociated from the chip for 2.5 minutes with buffer. […] Sensorgrams were generated and analyzed using BiaEval software version 3.1 (Biacore AB, Uppsala, Sweden). The equilibrium RU observed for each injection was plotted against concentration.
In general terms: Surface plasmon resonance follows binding to a sensor surface in real time, without labels.

The target of experiment [3] is T1, soluble human FcRn. As to the kind of experiment: SPR, pH 7.4. The procedure: as §1, §2

B1: Peptide No. 125 (peptide)
peptide: RFDTGHFGGLYPKNGP
modifications: side-chain lactam bridge Asp 3-Lys 13; C-terminal amide
For the molecule B1, the half-maximal inhibitory concentration (IC50) – broadly, the concentration that inhibits the measured activity by half – with soluble human FcRn [1] was found to be 9.4 µM.

B2: SEQ ID NO:10 (peptide)
peptide: AGNSFCRGRPGHFGGCYLFGTGGGK
modifications: disulfide; C-terminal amide
For the molecule B2, the results for the Kd with soluble human FcRn [2] and with soluble human FcRn [3] were 9.4 µM and 93 µM, respectively. In the experiment with soluble human FcRn [1], the IC50 came out at 33 µM.

B3: Peptide No. 157 (peptide)
peptide: QRFVTGHFGPLYPANGP
modifications: D-Pro at 10; linear; C-terminal amide
On to B3, for which binding with soluble human FcRn [2] was characterised by a dissociation constant (Kd) of 16 µM.

B4: Peptide No. 171 (peptide)
peptide: QRFVTGHFGPLYPYNGP
modifications: D-Pro at 10; linear; C-terminal amide
In the experiment with soluble human FcRn [1], B4 registered an IC50 of 150 µM.

B5: Peptide No. 190 (peptide)
peptide: QRFVTGHFGPWYPINGP
modifications: D-Pro at 10; linear; C-terminal amide
As for B5, the affinity in the experiment with soluble human FcRn [2], expressed as Kd, was 4.2 µM.

B6: Peptide No. 172 (peptide)
peptide: QRFVTGHFGPLYPWNGP
modifications: D-Pro at 10; linear; C-terminal amide
With B6, the half-maximal inhibitory concentration (IC50) in the experiment with soluble human FcRn [1] turned out to be 150 µM.

B7: Peptide No. 85 (peptide)
peptide: QRFDTGHFGGLYPXNGP
modifications: Orn at 14; side-chain lactam bridge Asp 4-Orn 14; C-terminal amide
As to B7, the Kd (as a rule, the concentration at which binding is half-saturated) with soluble human FcRn [2] was 2.7 µM. The same molecule had an IC50 with soluble human FcRn [1] of 16 µM.

B8: Peptide No. 90 (peptide)
peptide: QRFXTGHXGGLYPCNGP
modifications: Pen at 4; 4-MePhe at 8; disulfide; C-terminal amide
For B8, the concentration for half-maximal inhibition (IC50) with soluble human FcRn [1] was 1.7 µM.

B9: SEQ ID NO:7 (peptide)
peptide: AGGGCVTGHFGGIYCNTQGTGGGK
modifications: disulfide; C-terminal amide
The molecule B9 returned a half-inhibitory concentration (IC50) in the experiment with soluble human FcRn [1] of 33 µM.

B10: Peptide No. 182 (peptide)
peptide: RFVTGHFXLYPA
modifications: X at 8 = 3-amino-2-oxo-1-piperidine-acetic acid (drawing CHEM-US-00094); linear; C-terminal amide
Take B10: the equilibrium dissociation constant (Kd) with soluble human FcRn [2] amounted to 3.3 µM.

B11: SEQ ID NO:23 (peptide)
peptide: QRFCTGHFGGLYPCNG
modifications: disulfide; C-terminal amide
B11 registered a Kd in the experiment with soluble human FcRn [3] of 69 µM.

B12: Peptide No. 265 (peptide)
peptide: RFXTGFFGGLYPC
modifications: Pen at 3; Sar at 9; NMeLeu at 10; disulfide; C-terminal amide
With B12, the equilibrium dissociation constant (Kd) was determined as 3.3 µM with soluble human FcRn [2] and 4.2 µM with soluble human FcRn [3]. In addition, the half-maximal inhibitory concentration (IC50) with soluble human FcRn [1] amounted to 27 µM.

B13: Peptide No. 266 (peptide)
peptide: RFXTGAFGGLYPC
modifications: Pen at 3; Sar at 9; NMeLeu at 10; disulfide; C-terminal amide
Turning to B13, binding with soluble human FcRn [3] was put at a Kd of 13 µM.

B14: Peptide No. 73 (peptide)
peptide: QRFKTGHFGGLYPENGP
modifications: side-chain lactam bridge Lys 4-Glu 14; C-terminal amide
In the experiment with soluble human FcRn [1], B14 displayed a 50% inhibitory concentration (IC50) of 33 µM.

B15: SEQ ID NO:24 (peptide)
peptide: QRFCTGHFGGLYPCN
modifications: disulfide; C-terminal amide
The molecule B15 gave a half-inhibitory concentration (IC50) with soluble human FcRn [1] of 31 µM. This IC50 and that of the molecule before are within 1.5-fold of each other.

B16: Peptide No. 38 (peptide)
peptide: QRFDTGHFGGLYPXNGP
modifications: Dab at 14; side-chain lactam bridge Asp 4-Dab 14; C-terminal amide
B16: the results for the dissociation constant (Kd) in the experiment with soluble human FcRn [2] and in the experiment with soluble human FcRn [3] were 17 µM and 150 µM, respectively. In the experiment with soluble human FcRn [1], this molecule yielded an IC50 of 68 µM.

B17: Peptide No. 143 (peptide)
peptide: FXTGHFGPLYPC
modifications: Pen at 2; D-Pro at 8; disulfide; C-terminal amide
Regarding B17, the IC50 in the experiment with soluble human FcRn [1] turned out to be 1.7 µM.

B18: Peptide No. 64 (peptide)
peptide: QRFXTGHFGGLXPCNGP
modifications: Pen at 4; 4-methoxyPhe at 12; disulfide; C-terminal amide
Molecule B18 yielded a Kd in the experiment with soluble human FcRn [2] of 31 µM.

B19: Peptide No. 105 (peptide)
peptide: QRFDTGHFGALYPKNGP
modifications: D-Ala at 10; side-chain lactam bridge Asp 4-Lys 14; C-terminal amide
In the case of B19, the IC50 with soluble human FcRn [1] was 12 µM.

B20: Peptide No. 159 (peptide)
peptide: QRFDTGHFGPLYPKNGP
modifications: D-Pro at 10; side-chain lactam bridge Asp 4-Lys 14; C-terminal amide
The molecule B20 gave a dissociation constant (Kd) in the experiment with soluble human FcRn [2] of 1.2 µM.

B21: Peptide No. 36 (peptide)
peptide: QRFCTGXFGGLYPCNGP
modifications: Dab at 7; disulfide; C-terminal amide
In the experiment with soluble human FcRn [2], B21 returned a Kd of 211 µM.

B22: SEQ ID NO:18 (peptide)
peptide: QRFCTGHFGGLYPC
modifications: disulfide; C-terminal amide
B22 returned an IC50 in the experiment with soluble human FcRn [1] of 27 µM.

B23: Peptide No. 40 (peptide)
peptide: QRFXTGHFGPLYPCNGP
modifications: Pen at 4; D-Pro at 10; disulfide; C-terminal amide
Regarding B23, the Kd with soluble human FcRn [2] stood at 0.23 µM.

B24: Peptide No. 50 (peptide)
peptide: QRFXTGHFHGLYPCNGP
modifications: Pen at 4; D-His at 9; disulfide; C-terminal amide
B24 had a Kd with soluble human FcRn [2] of 0.41 µM.

B25: Peptide No. 53 (peptide)
peptide: QRFXTGHFYGLYPCNGP
modifications: Pen at 4; D-Tyr at 9; disulfide; C-terminal amide
B25: in the experiment with soluble human FcRn [2], binding was characterised by a dissociation constant (Kd) of 0.32 µM. This molecule also displayed a half-inhibitory concentration (IC50) with soluble human FcRn [1] of 3.2 µM.

B26: Peptide No. 51 (peptide)
peptide: QRFXTGHFIGLYPCNGP
modifications: Pen at 4; D-Ile at 9; disulfide; C-terminal amide
With B26, binding in the experiment with soluble human FcRn [2] was put at a Kd of 2.6 µM. In the experiment with soluble human FcRn [1], this molecule yielded a concentration for half-maximal inhibition (IC50) of 9.4 µM.

B27: Peptide No. 152 (peptide)
peptide: QRFXTGHFPPLYPCNGP
modifications: Pen at 4; D-Pro at 9 and 10; disulfide; C-terminal amide
B27 had an equilibrium dissociation constant (Kd) with soluble human FcRn [2] of 3.3 µM.

B28: Peptide No. 203 (peptide)
peptide: QRFXTGHFFPLYPCNGP
modifications: Pen at 4; D-Phe at 9 (L-Pro at 10); disulfide; C-terminal amide
For B28, in the experiment with soluble human FcRn [1], the IC50 came to 22 µM.

B29: Peptide No. 151 (peptide)
peptide: QRFXTGHFFALYPCNGP
modifications: Pen at 4; D-Phe at 9; D-Ala at 10; disulfide; C-terminal amide
In turn, B29 had a dissociation constant (Kd) with soluble human FcRn [2] of 0.41 µM. This counts as sub-micromolar.

B30: Peptide No. 43 (peptide)
peptide: QRFXTGHFGILYPCNGP
modifications: Pen at 4; D-Ile at 10; disulfide; C-terminal amide
B30 registered a Kd in the experiment with soluble human FcRn [2] of 2.2 µM.

B31: Peptide No. 48 (peptide)
peptide: QRFXTGHFPGLYPCNGP
modifications: Pen at 4; D-Pro at 9; disulfide; C-terminal amide
Regarding B31, the Kd with soluble human FcRn [2] amounted to 0.79 µM; with soluble human FcRn [3], 21 µM.

B32: Peptide No. 47 (peptide)
peptide: QRFXTGHFDGLYPCNGP
modifications: Pen at 4; D-Asp at 9; disulfide; C-terminal amide
Consider B32, for which, in the experiment with soluble human FcRn [1], the concentration for half-maximal inhibition (IC50) stood at 3.1 µM.

B33: Peptide No. 95 (peptide)
peptide: QRFXTGHWGGLYPCNGP
modifications: Pen at 4; disulfide; C-terminal amide
On to B33, for which the Kd with soluble human FcRn [2] stood at 2.7 µM. This lies in the single-digit micromolar range.

B34: Peptide No. 42 (peptide)
peptide: QRFXTGHFGHLYPCNGP
modifications: Pen at 4; D-His at 10; disulfide; C-terminal amide
For B34, the half-maximal inhibitory concentration (IC50) in the experiment with soluble human FcRn [1] worked out at 12 µM.

B35: Peptide No. 148 (peptide)
peptide: QRFXTGHFAALYPCNGP
modifications: Pen at 4; D-Ala at 9 and 10; disulfide; C-terminal amide
In the experiment with soluble human FcRn [1], B35 gave a 50% inhibitory concentration (IC50) of 4.5 µM.

B36: Peptide No. 45 (peptide)
peptide: QRFXTGHFGYLYPCNGP
modifications: Pen at 4; D-Tyr at 10; disulfide; C-terminal amide
As to B36, the affinity in the experiment with soluble human FcRn [3], expressed as Kd, was 31 µM. In addition, in the experiment with soluble human FcRn [1], the IC50 came out at 13 µM.

B37: Peptide No. 81 (peptide)
peptide: QRFXTGHFGGLYPDNGP
modifications: Dab at 4; side-chain lactam bridge Dab 4-Asp 14; C-terminal amide
In the experiment with soluble human FcRn [1], B37 returned a concentration for half-maximal inhibition (IC50) of 31 µM.

B38: Peptide No. 44 (peptide)
peptide: QRFXTGHFGFLYPCNGP
modifications: Pen at 4; D-Phe at 10; disulfide; C-terminal amide
Molecule B38 came in with an IC50 with soluble human FcRn [1] of 13 µM. This IC50 lies about 2.4-fold lower than the previous one.

B39: SEQ ID NO:21 (peptide)
peptide: RFCTGHFGGLYPCNGP
modifications: disulfide; C-terminal amide
Consider B39, for which, in the experiment with soluble human FcRn [3], the Kd is 78 µM.

B40: Peptide No. 204 (peptide)
peptide: RFXTGHFXLYPC
modifications: Pen at 3; X at 8 = 6,5-bicyclic dipeptide mimic; disulfide; C-terminal amide
In the experiment with soluble human FcRn [2], B40 came in with a Kd of 0.32 µM.

B41: Peptide No. 124 (peptide)
peptide: FDTGHFGGLYPKNGP
modifications: side-chain lactam bridge Asp 2-Lys 12; C-terminal amide
In the case of B41, in the experiment with soluble human FcRn [1], the 50% inhibitory concentration (IC50) turned out to be 22 µM.

B42: SEQ ID NO:22 (peptide)
peptide: FCTGHFGGLYPCNGP
modifications: disulfide; C-terminal amide
In the experiment with soluble human FcRn [3], B42 gave an equilibrium dissociation constant (Kd) of 120 µM.

B43: SEQ ID NO:8 (peptide)
peptide: AGKIICSPGHFGGMYCQGKGTGGGK
modifications: disulfide; C-terminal amide
Molecule B43 had a Kd with soluble human FcRn [3] of 78 µM. This Kd is about 1.5-fold lower than that of the molecule before.

B44: Peptide No. 93 (peptide)
peptide: QRFXTGHXGGLYPCNGP
modifications: Pen at 4; Cha at 8; disulfide; C-terminal amide
With B44, the Kd in the experiment with soluble human FcRn [2] came out at 4.5 µM. The molecule also displayed an IC50 in the experiment with soluble human FcRn [1] of 31 µM.

B45: Peptide No. 61 (peptide)
peptide: QRFXTGHXGGLYPCNGP
modifications: Pen at 4; 1-napthylalanine at 8; disulfide; C-terminal amide
B45 showed a Kd with soluble human FcRn [2] of 2.2 µM. Moreover, the half-inhibitory concentration (IC50) with soluble human FcRn [1] came to 13 µM.
